Measurements taken from paper PMC7504417 (International Journal of Molecular Sciences, 2020).
Structures can show the parent of a compound that is named as a salt.

Amino acid sequences for entries named in this document (tags omitted). Chains listed by the source or under a name are the forms on record and can include a tag or linker.
UniProt P35372, with tags, fused parts or gaps: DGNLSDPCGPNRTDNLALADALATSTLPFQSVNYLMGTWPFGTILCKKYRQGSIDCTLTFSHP

Assays:
[1] = target: Opioid Receptor (mu opioid receptor peptides) (Homo sapiens, UniProt P35372); assay: Overall pattern of binding: Opioid Receptor peptides
[2] = target: T1, mu opioid receptor peptide Mu OPR 211–226 (Homo sapiens, UniProt P35372); assay: biochemical; settings: read-out: Kd (µM) Mu OPR 211–226, lower-affinity binding
T1 construct: Mu OPR 211–226; purchased RS Synthesis (Louisville, KY, USA); host or cells: chemical synthesis

[3] = target: dopamine 1 receptor peptide D1DR 96–98 FCN (Homo sapiens, UniProt P21728); assay: biochemical
[4] = target: mu opioid receptor peptide Mu OPR 132–143 (Homo sapiens, UniProt P35372)
[5] = target: T2, beta 2 adrenergic receptor peptide B2AR 183–185 NCY (Homo sapiens, UniProt P07550); assay: biochemical; type: binding
T2 construct: B2AR 183–185 NCY; purchased RS Synthesis (Louisville, KY, USA); host or cells: chemical synthesis

[6] = target: T3, beta 2 adrenergic receptor peptide B2AR 105–108 WCEF (Homo sapiens, UniProt P07550); assay: biochemical; type: binding
T3 construct: B2AR 105–108 WCEF; purchased RS Synthesis (Louisville, KY, USA); host or cells: chemical synthesis

[7] = target: histamine 1 receptor peptide HIHR 177–183 RDKCETD (Homo sapiens, UniProt P35367, E177R); assay: biochemical

With `CNC[C@H](O)c1ccc(O)c(O)c1` [Epinephrine, epinephrine HCl] the Kd [1] was 1 to 5 µM, the Kd [2] was 45 µM and the Kd [3] was 40 µM.
For `CSCC[C@H](NC(=O)[C@H](Cc1ccccc1)NC(=O)CNC(=O)CNC(=O)[C@@H](N)Cc1ccc(O)cc1)C(=O)O` [Met-Enkephalin, methionine-enkephalin], the “binding to muOPR 132–143, in words” value [4] was “bound”.
`CN1CC[C@]23c4c5ccc(O)c4O[C@H]2[C@@H](O)C=C[C@H]3[C@H]1C5` [Morphine, morphine sulfate] was tested, and the Kd [5] was greater than 1000 µM, the Kd [6] was 30 µM and the Kd [7] was 30 µM.
For `NCCc1c[nH]c2ccc(O)cc12` [Serotonin, serotonin], the Kd [3] was 30 µM.
